Measured values as given in ChEMBL document CHEMBL2311294, “Design, synthesis and bioevalution of novel benzamides derivatives as HDAC inhibitors” (Bioorg Med Chem Lett, 2013).

Chains of the proteins cited; added tags and fusions are not shown.
UniProt Q13547, whole entry: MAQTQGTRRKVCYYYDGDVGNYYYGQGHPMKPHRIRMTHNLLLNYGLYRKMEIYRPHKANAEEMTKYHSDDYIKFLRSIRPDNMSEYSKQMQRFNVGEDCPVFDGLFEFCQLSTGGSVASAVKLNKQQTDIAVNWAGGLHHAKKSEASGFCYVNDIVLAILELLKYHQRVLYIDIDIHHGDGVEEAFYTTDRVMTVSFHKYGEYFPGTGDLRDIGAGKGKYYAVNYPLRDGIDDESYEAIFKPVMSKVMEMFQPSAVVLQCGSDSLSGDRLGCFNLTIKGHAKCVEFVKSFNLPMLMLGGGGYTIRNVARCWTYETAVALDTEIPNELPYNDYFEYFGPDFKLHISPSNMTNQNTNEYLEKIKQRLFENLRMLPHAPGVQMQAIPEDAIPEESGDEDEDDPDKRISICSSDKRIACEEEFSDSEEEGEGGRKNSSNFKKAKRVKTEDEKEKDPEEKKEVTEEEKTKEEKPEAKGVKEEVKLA

Target: Histone deacetylase 1 (Homo sapiens, UniProt Q13547)
Experiment: Ratio of MGCD0103 IC50 to compound IC50 for HDAC1 (unknown origin)

Ratio IC50: 3
Structure (SMILES): Nc1ccccc1NC(=O)c1ccc(CNc2nccc(-c3cnc4ccccn34)n2)cc1
